Patent publication US10011599B2 (priority 2013, dated 2018)

Experiments:
A375 cells = experiment: cells; conditions: Homo sapiens, A-375, 72 h, read-out: A375 XTT IC50 uM
[1] = test system: phospho-ERK1/2 in A375 cells; experiment: cells; conditions: Homo sapiens, A-375, 3 h, read-out: A375 ICW IC50

Row | Compound | IC50 (A375 cells) [µM] | IC50 [1] [nM]
1 | Cc1ccnc(Oc2ccc(-c3cc4c(cc3F)ncc3ncn(C5(C)CCN(C(=O)CO)CC5)c34)c(Cl)c2)n1 [Example 26, 1-(4-(8-(2-chloro-4-((4-methylpyrimidin-2-yl)oxy)phenyl)-7-fluoro-1H-imidazo[4,5-c]quinolin-1-yl)-4-methylpiperidin-1-yl)-2-hydroxyethanone] | 0.011 | 4
2 | CC(O)C(=O)N1CCC(C)(n2cnc3cnc4cc(F)c(-c5ccc(Oc6ncccn6)cc5Cl)cc4c32)CC1 (centres unmarked) [Example 27, 1-(4-(8-(2-chloro-4-(pyrimidin-2-yloxy)phenyl)-7-fluoro-1H-imidazo[4,5-c]quinolin-1-yl)-4-methylpiperidin-1-yl)-2-hydroxpropan-1-one] | 0.362 | 365
3 | Cc1ccnc(Oc2ccc(-c3cc4c(cc3F)ncc3nc(C)n(C5CCN(C(=O)C(C)O)CC5)c34)c(Cl)c2)n1 (centres unmarked) [Example 29, 1-(4-(8-(2-chloro-4-((4-methylpyrimidin-2-yl)oxy)phenyl)-7-fluoro-2-methyl-1H-imidazo[4,5-c]quinolin-1-yl)piperidin-1-yl)-2-hydroxypropan-1-one] | 0.091 | 81
4 | Cc1ccnc(Oc2ccc(-c3cc4c(cc3F)ncc3nc(C)n(C5CCN(C(N)=O)CC5)c34)c(Cl)c2)n1 [Example 31, 4-(8-(2-chloro-4-((4-methylpyrimidin-2-yl)oxy)phenyl)-7-fluoro-2-methyl-1H-imidazo[4,5-c]quinolin-1-yl)piperidine-1-carboxamide] | 0.0047 | 6
5 | Cc1ccnc(Oc2ccc(-c3cc4c(cc3F)ncc3nc(C)n(C5CCN(S(C)(=O)=O)CC5)c34)c(Cl)c2)n1 [Example 32, 8-(2-chloro-4-((4-methylpyrimidin-2-yl)oxy)phenyl)-7-fluoro-2-methyl-1-(1-(methylsulfonyl)piperidin-4-yl)-1H-imidazo[4,5-c]quinoline] | 0.094 | 100
6 | CC1(n2cnc3cnc4cc(F)c(-c5ccc(Oc6ncccn6)cc5Cl)cc4c32)CCN(C(=O)CO)CC1 [Example 33, 1-(4-(8-(2-chloro-4-(pyrimidin-2-yloxy)phenyl)-7-fluoro-1H-imidazo[4,5-c]quinolin-1-yl)-4-methylpiperidin-1-yl)-2-hydroxyethanone] | 0.054 | 60
7 | Cc1ccnc(Oc2ccc(-c3cc4c(cc3F)ncc3nc(C)n(C5CCN(C(=O)[C@H](C)O)CC5)c34)c(Cl)c2)n1 [Example 35, (S)-1-(4-(8-(2-chloro-4-((4-methylpyrimidin-2-yl)oxy)phenyl)-7-fluoro-2-methyl-1H-imidazo[4,5-c]quinolin-1-yl)piperidin-1-yl)-2-hydroxypropan-1-one] | 0.026 | 18
8 | Cc1ccnc(Oc2ccc(-c3cc4c(cc3F)ncc3nc(C)n(C5CCN(CCO)CC5)c34)c(Cl)c2)n1 [Example 36, 2-(4-(8-(2-chloro-4-((4-methylpyrimidin-2-yl)oxy)phenyl)-7-fluoro-2-methyl-1H-imidazo[4,5-c]quinolin-1-yl)piperidin-1-yl)ethanol] | 0.091 | 44
9 | COc1cc(Oc2nccc(C)n2)ccc1-c1cc2c(cc1F)ncc1ncn(C3(C)CCN(C(N)=O)CC3)c12 [Example 37, 4-(7-fluoro-8-(2-methoxy-4-((4-methylpyrimidin-2-yl)oxy)phenyl)-1H-imidazo[4,5-c]quinolin-1-yl)-4-methylpiperidine-1-carboxamide] | 0.008 | 9
10 | COc1cc(Oc2ncccn2)ccc1-c1cc2c(cc1F)ncc1ncn(C3(C)CCN(C(N)=O)CC3)c12 [Example 38, 4-(7-fluoro-8-(2-methoxy-4-(pyrimidin-2-yloxy)phenyl)-1H-imidazo[4,5-c]quinolin-1-yl)-4-methylpiperidine-1-carboxamide] | 0.119 | 63
11 | Cc1ccnc(Oc2ccc(-c3cc4c(cc3F)ncc3ncn(C5(CO)CCN(C(=O)CO)CC5)c34)c(Cl)c2)n1 [Example 41, 1-(4-(8-(2-chloro-4-((4-methylpyrimidin-2-yl)oxy)phenyl)-7-fluoro-1H-imidazo[4,5-c]quinolin-1-yl)-4-(hydroxymethyl)piperidin-1-yl)-2-hydroxyethanone] | 2.8 | 620
12 | Cc1nc2cnc3cc(F)c(-c4ccc(Oc5cccc(CO)n5)cc4Cl)cc3c2n1C1CCN(C(=O)CO)CC1 [Example 44, 1-(4-(8-(2-chloro-4-((6-(hydroxymethyl)pyridin-2-yl)oxy)phenyl)-7-fluoro-2-methyl-1H-imidazo[4,5-c]quinolin-1-yl)piperidin-1-yl)-2-hydroxyethanone] | 0.011 | 26
13 | Cc1nc2cnc3cc(F)c(-c4ccc(Oc5nccc(F)n5)cc4Cl)cc3c2n1C1CCN(C(=O)CO)CC1 [Example 46, 1-(4-(8-(2-chloro-4-((4-fluoropyrimidin-2-yl)oxy)phenyl)-7-fluoro-2-methyl-1H-imidazo[4,5-c]quinolin-1-yl)piperidin-1-yl)-2-hydroxyethanone] | 2.63 | 206
14 | Cc1nc2cnc3cc(F)c(-c4ccc(Oc5cccc(F)n5)cc4Cl)cc3c2n1C1CCN(C(=O)CO)CC1 [Example 47, 1-(4-(8-(2-chloro-4-((6-fluoropyridin-2-yl)oxy)phenyl)-7-fluoro-2-methyl-1H-imidazo[4,5-c]quinolin-1-yl)piperidin-1-yl)-2-hydroxyethanone] | 0.011 | 16
15 | Cc1nc(Oc2ccc(-c3cc4c(cc3F)ncc3nc(C)n(C5CCN(C(=O)CO)CC5)c34)c(Cl)c2)ncc1F [Example 48, 1-(4-(8-(2-chloro-4-((5-fluoro-4-methylpyrimidin-2-yl)oxy)phenyl)-7-fluoro-2-methyl-1H-imidazo[4,5-c]quinolin-1-yl)piperidin-1-yl)-2-hydroxyethanone] | 0.025 | 44
16 | Cc1nc2cnc3cc(F)c(-c4ccc(Oc5nccc(C6CC6)n5)cc4Cl)cc3c2n1C1CCN(C(=O)CO)CC1 [Example 54, 1-(4-(8-(2-chloro-4-((4-cyclopropylpyrimidin-2-yl)oxy)phenyl)-7-fluoro-2-methyl-1H-imidazo[4,5-c]quinolin-1-yl)piperidin-1-yl)-2-hydroxyethanone] | 0.025 | 42
17 | Cc1ccnc(Oc2ccc(-c3cc4c(cc3F)ncc3nc(C)n([C@@H]5CCN(CC#N)C[C@H]5F)c34)c(Cl)c2)n1 [Example 57, 2-((3R,4R)-4-(8-(2-chloro-4-((4-methylpyrimidin-2-yl)oxy)phenyl)-7-fluoro-2-methyl-1H-imidazo[4,5-c]quinolin-1-yl)-3-fluoropiperidin-1-yl)acetonitrile] | 0.041 | 89
18 | Cc1ccnc(Oc2ccc(-c3cc4c(cc3F)ncc3nc(C)n([C@H]5CCN(CC#N)C[C@@H]5F)c34)c(Cl)c2)n1 [Example 58, 2-((3S,4S)-4-(8-(2-chloro-4-((4-methylpyrimidin-2-yl)oxy)phenyl)-7-fluoro-2-methyl-1H-imidazo[4,5-c]quinolin-1-yl)-3-fluoropiperidin-1-yl)acetonitrile] | 0.008 | 14
19 | Cc1cc(Oc2ccc(-c3cc4c(cc3F)ncc3nc(C)n(C5CCN(CC#N)CC5)c34)c(Cl)c2)nc(C#N)n1 [Example 59, 4-(3-chloro-4-(1-(1-(cyanomethyl)piperidin-4-yl)-7-fluoro-2-methyl-1H-imidazo[4,5-c]quinolin-8-yl)phenoxy)-6-methylpyrimidine-2-carbonitrile] | 1.6 | 609
